From PubChem BioAssay AID373 (The Scripps Research Institute Molecular Screening Center, 2006)
Only a part is listed here, and it is no random draw. Some of these compounds have results that are not shown, active ones among them. Active and inactive are the calls of the source.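 The calls were made as follows: active = activation above the screen-wide mean plus 3 SD (cut at about 4.5% in these data, passing the limit was not always enough); inactive = the rest, inconclusive results apart.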

Amino acid sequences for entries named in this document (tags omitted).
UniProt Q99500, whole entry: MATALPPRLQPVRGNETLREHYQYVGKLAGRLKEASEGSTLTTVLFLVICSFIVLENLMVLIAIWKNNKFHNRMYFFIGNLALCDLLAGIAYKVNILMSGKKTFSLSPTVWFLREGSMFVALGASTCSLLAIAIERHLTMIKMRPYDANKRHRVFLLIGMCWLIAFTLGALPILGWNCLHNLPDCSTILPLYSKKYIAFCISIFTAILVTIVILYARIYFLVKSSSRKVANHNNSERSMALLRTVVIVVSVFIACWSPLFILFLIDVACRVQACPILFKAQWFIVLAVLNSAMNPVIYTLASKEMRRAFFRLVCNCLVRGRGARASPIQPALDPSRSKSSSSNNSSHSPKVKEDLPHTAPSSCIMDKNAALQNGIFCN

biological target: Sphingosine 1-phosphate receptor 3 (Homo sapiens) (UniProt Q99500); test: human S1P3 receptor agonists, primary screen, cell-based, primary and confirmation, NFAT-BLA reporter (AID 373); conditions: S1P3 NFAT-BLA reporter cells, agonism, FRET ratio; at 4.5 µM; active compounds read high; relative to 1 µM S1P, basal subtracted

SMILES	activation
O=C(OC1CN2CCC1CC2)C(CO)(c1ccccc1)c1ccccc1 (configuration not stated)	inactive: -0.3%
CN(C)c1cccc(C(=O)NCC2(N(C)C)CCCCC2)c1	inactive: -0.7%
